Drawing on patent US9096606B2, “Quarternized buprenorphine analogs” (dated 2015), this text covers EC50 and Ki for six substances.

Sequences of proteins named here, by UniProt entry; tags and fusion partners are left off.
UniProt P35372, whole entry, looked up: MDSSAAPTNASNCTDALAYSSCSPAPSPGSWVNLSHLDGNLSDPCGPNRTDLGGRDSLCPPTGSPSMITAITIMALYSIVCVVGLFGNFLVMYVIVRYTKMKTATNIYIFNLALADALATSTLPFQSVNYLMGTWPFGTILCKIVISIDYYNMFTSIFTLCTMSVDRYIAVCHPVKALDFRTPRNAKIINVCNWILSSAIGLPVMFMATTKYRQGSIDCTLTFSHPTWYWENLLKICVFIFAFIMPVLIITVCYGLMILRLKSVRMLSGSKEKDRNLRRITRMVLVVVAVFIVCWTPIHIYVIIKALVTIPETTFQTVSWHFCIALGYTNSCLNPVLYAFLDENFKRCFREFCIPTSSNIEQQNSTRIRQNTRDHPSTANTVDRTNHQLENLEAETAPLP
UniProt P41145, whole entry, looked up: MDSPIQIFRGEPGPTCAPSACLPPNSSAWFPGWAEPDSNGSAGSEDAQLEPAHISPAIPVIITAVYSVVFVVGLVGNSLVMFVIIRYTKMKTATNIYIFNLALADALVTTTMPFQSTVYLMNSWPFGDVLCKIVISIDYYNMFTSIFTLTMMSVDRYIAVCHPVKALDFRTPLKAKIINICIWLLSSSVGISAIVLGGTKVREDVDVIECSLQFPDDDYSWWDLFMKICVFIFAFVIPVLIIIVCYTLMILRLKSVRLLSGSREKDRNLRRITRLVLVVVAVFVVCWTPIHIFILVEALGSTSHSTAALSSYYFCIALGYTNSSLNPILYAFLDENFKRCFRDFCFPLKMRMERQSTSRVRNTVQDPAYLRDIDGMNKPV
UniProt P41146, whole entry, looked up: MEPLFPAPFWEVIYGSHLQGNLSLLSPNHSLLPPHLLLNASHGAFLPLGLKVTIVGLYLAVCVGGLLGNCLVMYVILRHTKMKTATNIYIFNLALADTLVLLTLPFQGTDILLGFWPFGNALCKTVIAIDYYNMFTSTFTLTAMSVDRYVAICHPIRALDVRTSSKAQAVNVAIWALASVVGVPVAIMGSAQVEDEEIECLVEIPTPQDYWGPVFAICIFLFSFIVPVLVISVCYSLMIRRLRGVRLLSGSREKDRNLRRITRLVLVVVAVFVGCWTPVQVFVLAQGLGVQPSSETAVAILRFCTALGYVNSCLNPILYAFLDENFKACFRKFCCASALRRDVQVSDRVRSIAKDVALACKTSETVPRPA

Where two headings read alike, the source gives them in different places. This is a selection: effects in other tests are not listed, and their absence says nothing.

Experiment [1] deals with T1, δ opioid receptor (Homo sapiens (Human), UniProt P41143). Put plainly: δ-opioid receptor functional [35S]GTPγS binding assay. The note with it: read-out: GTPγS δ EC50; bound given in μM. (In general: GTPγS resists hydrolysis and so accumulates on activated G proteins.)
Experiment [2] addresses T2, μ-opioid receptor (Homo sapiens (Human), UniProt P35372). Put plainly: μ-opioid receptor radioligand dose-displacement binding assay ([3H]-diprenorphine). The note with it: read-out: Ki μ opioid receptor; binding affinity.
In experiment [3] the target is T1, δ opioid receptor. Put plainly: δ-opioid receptor radioligand dose-displacement assay ([3H]-Naltrindole). As to conditions: read-out: Ki δ opioid receptor, binding affinity.
The target in experiment [4] is T2, μ-opioid receptor. Put plainly: μ-opioid receptor [35S]GTPγS functional assay. As to conditions: read-out: GTPγS μ EC50; bound given in μM.
For experiment [5], the target named is T3, κ opioid receptor (Homo sapiens (Human), UniProt P41145). The experiment is described as follows: κ-opioid receptor radioligand dose displacement assay ([3H]-U69,593). As to conditions: read-out: Ki κ opioid receptor; binding affinity.
The target of experiment [6] is human opioid receptor-like receptor (ORL-1) (Homo sapiens (Human), UniProt P41146). The experiment is described as follows: ORL-1 receptor radioligand binding assay ([3H]-nociceptin). As to conditions: read-out: Ki ORL-1, binding affinity.
Experiment [7] has as its target T3, κ opioid receptor. The experiment is described as follows: κ-opioid receptor functional [35S]GTPγS binding assay. The note with it: read-out: GTPγS κ EC50; bound given in μM.

As usually defined, the EC50 is the midpoint of the concentration-response curve. Broadly, the Ki is the dissociation constant of the complex between target and ligand, obtained from inhibition or displacement.

Take “(3S,4R,4aS,6R,7R,7aR,12bS)-3-(cyclopropylmethyl)-7,9-dimethoxy-3-methyl-6-(((4-(trifluoromethyl)benzyl)oxy)methyl)-1,2,3,4,5,6,7,7a-octahydro-4a,7-ethano-4,12-methanobenzofuro[3,2-e]isoquinolin-3-ium”: the EC50 in experiment [1] and in experiment [4] was above 20 µM in each case. The Ki was 262 nM in experiment [2], above 20 µM in experiment [3] (bound given in μM), 112 nM in experiment [5] and above 20 µM in experiment [6] (bound given in μM).
For the substance “(3R,4R,4aS,6R,7R,7aR,12bS)-3-(cyclopropylmethyl)-7,9-dimethoxy-3-methyl-6-(phenoxymethyl)-1,2,3,4,5,6,7,7a-octahydro-4a,7-ethano-4,12-methanobenzofuro[3,2-e]isoquinolin-3-ium”, the inhibitory constant (Ki) in experiment [2] was 1490 nM; in experiment [5], 348 nM. In addition, in experiment [7], the EC50 is above 20 µM.
For the substance “(3R,4R,4aS,6R,7R,7aR,12bS)-6-((benzo[b]thiophen-2-ylmethoxy)methyl)-3-(cyclopropylmethyl)-9-hydroxy-7-methoxy-3-methyl-1,2,3,4,5,6,7,7a-octahydro-4a,7-ethano-4,12-methanobenzofuro[3,2-e]isoquinolin-3-ium”, the EC50 in experiment [1], in experiment [7] and in experiment [4] was above 20 µM in each case. In addition, the inhibition constant Ki was 2.29 nM in experiment [2], 0.0453 µM in experiment [3], 0.78 nM in experiment [5] and 18.2 µM in experiment [6] (mean ± spread).
Take “(3R,4R,4aS,6R,7R,7aR,12bS)-3-(cyclopropylmethyl)-9-hydroxy-7-methoxy-3-methyl-6-(((4-methylbenzyl)oxy)methyl)-1,2,3,4,5,6,7,7a-octahydro-4a,7-ethano-4,12-methanobenzofuro[3,2-e]isoquinolin-3-ium”: the concentration giving a half-maximal response (EC50) in experiment [1] and in experiment [4] was above 20 µM in each case. Moreover, the Ki is 1.36 nM in experiment [2], 0.109 µM in experiment [3], 1.06 nM in experiment [5] and above 20 µM in experiment [6] (bound given in μM).
Take “(3R,4R,4aS,6R,7R,7aR,12bS)-3-(cyclopropylmethyl)-6-((furan-3-ylmethoxy)methyl)-9-hydroxy-7-methoxy-3-methyl-1,2,3,4,5,6,7,7a-octahydro-4a,7-ethano-4,12-methanobenzofuro[3,2-e]isoquinolin-3-ium”: the EC50 in experiment [1] and in experiment [4] was above 20 µM in each case. The Ki in experiment [2] was 47.1 nM; in experiment [3], 0.193 µM; in experiment [5] it was 0.29 nM.
Regarding “(3R,4R,4aS,6R,7R,7aR,12bS)-3-(cyclopropylmethyl)-6-(((4-fluorobenzyl)oxy)methyl)-9-hydroxy-7-methoxy-3-methyl-1,2,3,4,5,6,7,7a-octahydro-4a,7-ethano-4,12-methanobenzofuro[3,2-e]isoquinolin-3-ium”, the EC50 in experiment [1] and in experiment [4] was above 20 µM throughout. Moreover, the Ki in experiment [2] was 9.55 nM; in experiment [3], 0.175 µM; in experiment [5] it was 0.26 nM; in experiment [6] (bound given in μM), above 20 µM.
